# Values of other authors as cited in PubChem BioAssay AID1811 (Shanghai Institute of Organic Chemistry, 2009).
# This is one part of the list. The source made the active and inactive calls. Unless stated, no cut-off for active and inactive is given here.
# System: collagenase 3 (mmp-13)
# Assay: PubChem AID 1811
# Conditions: PDB complex binding affinities from literature
compound,measurement,value
CCOCCC1(Oc2ccc(Oc3ccc(F)cc3)cc2)C(=O)NC(=O)NC1=O,outcome,active
